Laboratory results as given in publication PMC12501026.

B1: Flag-Histone H1.5 [human] / IκBα [human (endogenous in DB)] (parent)
chain 1: MSETAPAETATPAPVEKSPAKKKATKKAAGAGAAKRKATGPPVSELITKAVAASKERNGLSLAALKKALAAGGYDVEKNNSRIKLGLKSLVSKGTLVQTKGTGASGSFKLNKKAASGEAKPKAKKAGAAKAKKPAGATPKKAKKAAGAKKAVKKTPKKAKKPAAAGVKKVAKSPKKAKAAAKPKKATKSPAKPKAVKPKAAKPKAAKPKAAKPKAAKAKKAAAKKK
chain 2: MFQAAERPQEWAMEGPRDGLKKERLLDDRHDSGLDSMKDEEYEQMVKELQEIRLEPQEVPRGSEPWKQQLTEDGDSFLHLAIIHEEKALTMEVIRQVKGDLAFLNFQNNLQQTPLHLAVITNQPEIAEALLGAGCDPELRDFRGNTPLHLACEQGCLASVGVLTQSCTTPHLHSILKATNYNGHTCLHLASIHGYLGIVELLVSLGADVNAQEPCNGRTALHLAVDLQNPDLVSLLLKCGADVNRVTYQGYSPYQLTWGRPSTRIQQQLGQLTLENLQMLPESEDEESYDTESEFTEFTEDELPYDDCVFGGQRLTL

Variants of: B1
Assay: co-immunoprecipitation (Flag IP, western blot band quantification)
Details: with IκBα [human (endogenous in DB)]; Chidamide (800nM); parent: 1.1; read off a plot

Variant	response
chain 1 MSETAPAETATPAPVEKSPAKKKATKKAAGAGAAKRRATGPPVSELITKAVAASKERNGLSLAALKKALAAGGYDVEKNNSRIKLGLKSLVSKGTLVQTKGTGASGSFKLNKKAASGEAKPKAKKAGAAKAKKPAGATPKKAKKAAGAKKAVKKTPKKAKKPAAAGVKKVAKSPKKAKAAAKPKKATKSPAKPKAVKPKAAKPKAAKPKAAKPKAAKAKKAAAKKK [chain 1 K37R]	1.1
chain 1 MSETAPAETATPAPVEKSPAKKKATKKAAGAGAAKRKATGPPVSELITRAVAASKERNGLSLAALKKALAAGGYDVEKNNSRIKLGLKSLVSKGTLVQTKGTGASGSFKLNKKAASGEAKPKAKKAGAAKAKKPAGATPKKAKKAAGAKKAVKKTPKKAKKPAAAGVKKVAKSPKKAKAAAKPKKATKSPAKPKAVKPKAAKPKAAKPKAAKPKAAKAKKAAAKKK [chain 1 K49R]	1
chain 1 MSETAPAETATPAPVEKSPAKKKATKKAAGAGAAKRKATGPPVSELITKAVAASKERNGLSLAALKRALAAGGYDVEKNNSRIKLGLKSLVSKGTLVQTKGTGASGSFKLNKKAASGEAKPKAKKAGAAKAKKPAGATPKKAKKAAGAKKAVKKTPKKAKKPAAAGVKKVAKSPKKAKAAAKPKKATKSPAKPKAVKPKAAKPKAAKPKAAKPKAAKAKKAAAKKK [chain 1 K67R]	0.44
chain 1 MSETAPAETATPAPVEKSPAKKKATKKAAGAGAAKRKATGPPVSELITKAVAASKERNGLSLAALKKALAAGGYDVEKNNSRIKLGLRSLVSKGTLVQTKGTGASGSFKLNKKAASGEAKPKAKKAGAAKAKKPAGATPKKAKKAAGAKKAVKKTPKKAKKPAAAGVKKVAKSPKKAKAAAKPKKATKSPAKPKAVKPKAAKPKAAKPKAAKPKAAKAKKAAAKKK [chain 1 K88R]	0.98
chain 1 MSETAPAETATPAPVEKSPAKKKATKKAAGAGAAKRKATGPPVSELITKAVAASKERNGLSLAALKKALAAGGYDVEKNNSRIKLGLKSLVSRGTLVQTKGTGASGSFKLNKKAASGEAKPKAKKAGAAKAKKPAGATPKKAKKAAGAKKAVKKTPKKAKKPAAAGVKKVAKSPKKAKAAAKPKKATKSPAKPKAVKPKAAKPKAAKPKAAKPKAAKAKKAAAKKK [chain 1 K93R]	0.37
